ChEMBL document CHEMBL1144964, “Inhibition of mandelate racemase by alpha-fluorobenzylphosphonates” (Bioorg Med Chem Lett, 2003)

Legend:
[1] = tested on: Pseudomonas putida; assay: Michaelis-Menten Km value for the compound towards enzyme affinity for the substrate was determined at pH 7.5
[2] = tested on: Pseudomonas putida; assay: Michaelis-Menten constant for the compound was determined at pH 6.3 for mandelate racemase from Pseudomonas putida

O=P(O)(O)[C@H](F)c1ccccc1
Km [1]: 930 µM

O=P(O)(O)C(F)(F)c1ccccc1
Km [2]: 790 µM
